Entries after “also recorded” stand apart in the source; their conditions may differ.

A short description of the data set: Heat stability of peptide variants. It is filed as physicochemical. Conditions: C-terminal variants of SGGNNSPA-X; no method or data given.

In the case of SGGNNSPAM [SEQ ID 18], the heat stability entry is “particularly good Leu-heat stability; also recorded: increased heat stability”.
